53 compounds from PubChem BioAssay AID588334 (Broad Institute, 2011) can be followed below.

The entries are a selection whose mix differs from that of the whole data set. Some salts or complexes appear as unconnected parts, following the source record. Calls of active or inactive are those of the source.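 The calls were made as follows: active = mean activation of at least 80% with every replicate also reaching 80%; inconclusive = mean reaches 80% but some replicate falls short; inactive = the rest.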

The nature of this assay: MITF-driven TRPM1 luciferase induction in melanoma cells – cell-based, SK-MEL-5, single point, primary screen (AID 588334).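 Also: 0% = neutral control wells and 100% = parthenolide positive control wells.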 The conditions noted are these: SK-MEL-5 TRPM1-promoter luciferase, 24 h; at 12.5 µM; stronger effect = higher value; % of positive control, neutral wells = 0.
Turning to `CCOC(=O)C(CC)C1=NC(C)(C)Cc2ccccc21.O=[N+]([O-])c1cc([N+](=O)[O-])c(O)c([N+](=O)[O-])c1` (stereo not drawn), the activation is inactive: -4.69%.
The same measure for `Cc1nc2ccc3ccccc3c2s1.O=[N+]([O-])c1cc([N+](=O)[O-])c(O)c([N+](=O)[O-])c1`: inactive: 4.76%; for `O=[N+]([O-])c1cc([N+](=O)[O-])c(-n2nnc3ccccc32)c([N+](=O)[O-])c1`: inactive: -0.633%.
On to `CP(=O)(Nc1cccc(Br)c1)Oc1ccccc1` (stereo not drawn), for which the activation was inactive: -2.11%.
The same measure for `Cc1cc(C)cc(OP(C)(=O)Nc2ccccn2)c1` (stereo not drawn): inactive: 1.86%; for `Cc1ccc(C)c(NP(C)(=O)Oc2ccccc2)c1` (stereo not drawn): inactive: 7.56%.
As to `Cc1cc(C)cc(OP(C)(=O)Nc2ccc(C)cc2C)c1` (stereo not drawn), the activation is inactive: 2.4%.
The figure for `CCOC(=O)c1ccc(NP(C)(=O)Oc2cc(C)cc(C)c2)cc1` (stereo not drawn) is inactive: -5.43%.
Regarding `COc1ccccc1OP(C)(=O)Nc1cccc(Br)c1` (stereo not drawn), the activation is inactive: -1.37%.
The same measure for `CC1=NCCc2c1[nH]c1ccccc21.O=[N+]([O-])c1cc([N+](=O)[O-])c(O)c([N+](=O)[O-])c1`: inactive: -2.96%.
`O=C(O)c1cccc(Nc2c([N+](=O)[O-])cc([N+](=O)[O-])cc2[N+](=O)[O-])c1`: the activation is inactive: -7.18%.
The same measure for `CP(=O)(Nc1ccccc1)Oc1ccc(F)cc1` (stereo not drawn): inactive: -1.51%; for `CCN(CC)CCCOC(=O)C(O)(c1ccccc1)C1CCCCC1` (stereo not drawn): inactive: 12.7%; for `Cc1c([N+](=O)[O-])cc([N+](=O)[O-])c(Br)c1[N+](=O)[O-]`: inactive: -1.47%.
As for `COc1ccc(OP(C)(=O)Nc2ccc(SC(F)(F)F)cc2)cc1` (stereo not drawn), the activation was inactive: -2.71%.
The figure for `CCOC(=O)c1ccc(NP(C)(=O)Oc2ccc(F)cc2)cc1` (stereo not drawn) is inactive: 8.03%.
Regarding `COc1ccc2c(c1O)-c1c(O)c(OC)cc3c1[C@H](C2)[N+](C)(C)CC3.O=[N+]([O-])c1cc([N+](=O)[O-])c([O-])c([N+](=O)[O-])c1[O-]`, the activation is inactive: -17.1%.
The same measure for `O=C(OCCN1CCN(CCOCc2ccccc2)CC1)C(O)(c1ccccc1)c1ccccc1`: inactive: -5.04%; for `CC(C)c1ccc(OP(C)(=O)Nc2ccc(SC(F)(F)F)cc2)cc1` (stereo not drawn): inactive: 0.948%.
As for `CP(=O)(Nc1ccccc1F)Oc1ccccc1` (stereo not drawn), the activation was inactive: 2.89%.
The figure for `CP(=O)(Nc1ccc2c(c1)OCCO2)Oc1ccccc1` (stereo not drawn) is inactive: -46%; for `CCOP(C)(=S)SCC(=O)NC(C)(CC)C(=O)O` (stereo not drawn) it is inactive: 2.61%.
The figure for `Cc1c(C(c2ccc3c(c2)OCO3)c2c(C)n(C)n(-c3ccccc3)c2=O)c(=O)n(-c2ccccc2)n1C.O=[N+]([O-])c1cc([N+](=O)[O-])c(O)c([N+](=O)[O-])c1` is inactive: 9.28%.
The figure for `Cc1cc(-c2cccc3ccccc23)c(C)cn1.O=[N+]([O-])c1cc([N+](=O)[O-])c(O)c([N+](=O)[O-])c1` is inactive: -3.97%.
For `O=[N+]([O-])c1cc([N+](=O)[O-])c(NCC2CCS(=O)(=O)C2)c([N+](=O)[O-])c1` (stereo not drawn), the activation was inactive: -43.8%.
The figure for `O=[N+]([O-])c1ccc(OP2(=O)COCCO2)cc1` (stereo not drawn) is inactive: -4.85%; for `COc1ccc(NP(C)(=O)Oc2ccccc2OC)cc1` (stereo not drawn) it is inactive: -19.4%; for `CN(C)CCOC(=O)C(O)(c1ccccc1)C1CCCCC1` (stereo not drawn) it is inactive: 10.5%.
The same measure for `CP(=O)(OC12CC3CC(CC(C3)C1)C2)OC12CC3CC(CC(C3)C1)C2`: inactive: -6.09%; for `CCOC(=O)c1ccc(NP(C)(=O)Oc2ccc(Cl)cc2)cc1` (stereo not drawn): inactive: -1.24%.
The same measure for `CN(C)C(=O)c1c([N+](=O)[O-])cc([N+](=O)[O-])cc1[N+](=O)[O-]`: inactive: -42.7%; for `CP(=O)(Nc1ccc(Cl)cc1)Oc1ccc(F)cc1` (stereo not drawn): inactive: 0.874%.
On to `CC(C)(C)c1ccc(OP(C)(=O)O)cc1`, for which the activation was inactive: -6.63%.
The same measure for `COc1ccccc1OP(C)(=O)Nc1ccccc1Br` (stereo not drawn): inactive: -6.06%; for `CP(=O)(Oc1ccccc1)N1CCOC1=O` (stereo not drawn): inactive: -3.37%; for `CCc1ccc(OP(C)(=O)Nc2cccnc2)cc1` (stereo not drawn): inactive: -3.03%.
The same measure for `COc1ccccc1OP(C)(=O)Nc1c(C)n(C)n(-c2ccccc2)c1=O` (stereo not drawn): inactive: 15.6%; for `O=C(OCCCN1CCCC1)C(O)(c1ccccc1)C1CCCCC1` (stereo not drawn): inactive: 12.6%; for `CCN(CC)CC(O)COC(=O)C(O)(c1ccccc1)C1CCCCC1` (stereo not drawn): inactive: 2.42%.
Regarding `COc1ccc(OP(C)(=O)Nc2ccc(Br)cc2)cc1` (stereo not drawn), the activation is inactive: 11.3%.
The same measure for `CCc1ccc(OP(C)(=O)O)cc1`: inactive: 1.2%; for `CP(=O)(Nc1ccccn1)Oc1ccccc1` (stereo not drawn): inactive: 0.281%; for `O=[N+]([O-])c1cc([N+](=O)[O-])c(Nc2ccccn2)c([N+](=O)[O-])c1`: inactive: -84.3%.
As to `CN(C)CCOC(=O)C(O)(c1ccccc1)C1CCCC1` (stereo not drawn), the activation was inactive: -3.12%.
The same measure for `COc1ccc(OP(C)(=O)Nc2ccccn2)cc1` (stereo not drawn): inactive: -4.62%; for `COc1ccccc1OP(C)(=O)Nc1ccc(Br)cc1` (stereo not drawn): inactive: -11.9%.
The figure for `CP(=O)(OCCOc1ccccc1)OCCOc1ccccc1` is inactive: 0.319%; for `CP(=O)(Nc1ccc(Cl)cc1Cl)Oc1ccccc1` (stereo not drawn) it is inactive: -0.864%.
The figure for `CCCCCCCCCCCCCCCC1C[N+](C)(C)CCOP(C)(=O)O1` (stereo not drawn) is inactive: -9.85%.
On to `COc1ccc(OP(C)(=O)Nc2ccccc2Br)cc1` (stereo not drawn), for which the activation is inactive: 4.26%.
The same measure for `COc1ccccc1OP(C)(=O)Nc1ccc(C)c(C)c1` (stereo not drawn): inactive: -8.37%.
The same measure for `O=C1C(O)=C([N+](=O)[O-])C(=O)C(O)=C1[N+](=O)[O-]`: inactive: 3.09%; for `Cc1cc(C)cc(OP(C)(=O)Nc2cccc(C(F)(F)F)c2)c1` (stereo not drawn): inactive: 6.32%.
